Measurements: patent US20230271954A1 (Gossamer Bio Services, Inc., priority 2020, published 2023)

Amino acid sequences for entries named in this document (tags omitted). Residues count along the entry.
UniProt Q13574, 1-929 isoform 4: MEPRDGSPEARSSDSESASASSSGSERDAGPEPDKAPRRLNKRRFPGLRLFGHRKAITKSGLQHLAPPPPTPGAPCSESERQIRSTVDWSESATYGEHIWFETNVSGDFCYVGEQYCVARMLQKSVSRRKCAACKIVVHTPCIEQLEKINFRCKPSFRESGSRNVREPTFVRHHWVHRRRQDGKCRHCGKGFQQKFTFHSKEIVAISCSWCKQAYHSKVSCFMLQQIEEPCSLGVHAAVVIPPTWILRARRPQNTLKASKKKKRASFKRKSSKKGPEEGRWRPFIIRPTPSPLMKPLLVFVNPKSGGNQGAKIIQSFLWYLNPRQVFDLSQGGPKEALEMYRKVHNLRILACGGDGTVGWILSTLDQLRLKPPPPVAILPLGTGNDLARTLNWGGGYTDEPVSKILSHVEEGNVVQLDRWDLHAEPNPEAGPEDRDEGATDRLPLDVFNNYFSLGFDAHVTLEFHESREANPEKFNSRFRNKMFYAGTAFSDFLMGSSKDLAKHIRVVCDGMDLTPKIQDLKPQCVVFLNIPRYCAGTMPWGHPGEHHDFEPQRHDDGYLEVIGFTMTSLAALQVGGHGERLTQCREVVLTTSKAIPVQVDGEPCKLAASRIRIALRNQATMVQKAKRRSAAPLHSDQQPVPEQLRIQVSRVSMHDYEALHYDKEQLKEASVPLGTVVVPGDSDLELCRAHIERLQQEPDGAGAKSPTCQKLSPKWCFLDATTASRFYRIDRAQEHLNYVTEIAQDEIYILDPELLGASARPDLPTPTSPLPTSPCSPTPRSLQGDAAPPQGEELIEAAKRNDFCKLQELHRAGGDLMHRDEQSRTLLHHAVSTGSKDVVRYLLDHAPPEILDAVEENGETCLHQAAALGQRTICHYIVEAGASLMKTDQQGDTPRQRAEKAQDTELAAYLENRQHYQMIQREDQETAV
UniProt P23743, whole entry: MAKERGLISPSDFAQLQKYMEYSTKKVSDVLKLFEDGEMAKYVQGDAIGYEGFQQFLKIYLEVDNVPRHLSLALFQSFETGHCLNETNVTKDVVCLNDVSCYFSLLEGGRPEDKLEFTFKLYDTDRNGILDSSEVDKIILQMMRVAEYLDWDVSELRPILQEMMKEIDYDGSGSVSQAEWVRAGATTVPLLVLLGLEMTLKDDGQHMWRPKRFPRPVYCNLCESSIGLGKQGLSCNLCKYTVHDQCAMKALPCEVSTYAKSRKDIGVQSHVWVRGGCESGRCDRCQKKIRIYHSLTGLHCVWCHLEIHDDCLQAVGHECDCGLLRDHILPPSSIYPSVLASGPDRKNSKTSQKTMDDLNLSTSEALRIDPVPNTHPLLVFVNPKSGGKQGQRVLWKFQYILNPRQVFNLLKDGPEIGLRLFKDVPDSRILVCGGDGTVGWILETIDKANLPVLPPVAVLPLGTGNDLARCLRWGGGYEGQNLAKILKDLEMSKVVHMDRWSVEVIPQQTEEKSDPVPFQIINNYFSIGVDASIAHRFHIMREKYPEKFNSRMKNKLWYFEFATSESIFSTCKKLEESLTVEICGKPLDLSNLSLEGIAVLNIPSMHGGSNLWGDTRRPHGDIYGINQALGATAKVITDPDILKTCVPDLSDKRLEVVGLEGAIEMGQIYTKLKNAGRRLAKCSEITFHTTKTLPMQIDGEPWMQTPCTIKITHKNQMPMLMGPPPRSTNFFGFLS

Tests used:
DGKζ = DGKζ (Homo sapiens, UniProt Q13574); assay: DGKζ biochemical assay (ADP-Glo); conditions: read-out: DGK ζ IC50
Procedure: (§1) Compounds of the present invention were prepared into 10 mM DMSO solution and 10 nL of stock was transferred into 384 plates (Optiplate 384 plate) using Echo550. DMSO was used as high control, and ATP substrate buffer was used as a low control. A 1× enzyme assay buffer was prepared (Hepes, pH 7.0 25 mM, BSA 0.05%, Triton-X100 0.002%, CaCl2) 1 μM, MgCl2 10 mM, DTT 2 mM). The enzyme assay was performed by diluting enzyme DGKα (1 μg/μL DGKα, Carna12-101, SEQ ID NO: 3) or DGKζ (1μ/μL DGKζ, Carna 12-110, SEQ ID NO: 4) using 1× assay buffer. OAG (1-oleoyl-2-acetyl-sn-glycerol, 25 mg/ml, Avanti 8001000) and PS (10 mg/ml, Avanti 840032P) were mixed at the ratio of 1:2. A 1× substrate solution was prepared with 1× assay buffer by 100-fold dilution. The substrate solution was sonicated on ice for 1 min. The pure ATP was added to the substrate solution (DGKα:400 μM). 5 μL of the enzyme solution were added to the 384 well plate, and the plate was spun for 1 min at 1000 rpm and incubated for 30 mins at RT. 5 μL of 1× substrate solution were added to the 384 well plate, the plate was spun and then incubated for 45 mins at RT. 10 μL ADP-Glo […] was added to stop the assay. After 60 mins at RT, 20 μL ADP-Glo Detection buffer was added as the final step. Plate was read after 45 min incubation at RT.
(§2) Data analysis was performed by calculating the […] using following the formula:
(§3) [formula] • High control (Hc): DMSO/DGKα(DGKζ)/Substrate/ATP/ADP-Glo • Low Control (Lc): ATP/ADP-Glo

DGKα = DGKα (Homo sapiens, UniProt P23743); assay: DGKα biochemical assay (ADP-Glo); conditions: read-out: DGK α IC50
Procedure: as §1, §2, §3

SMILES: COc1cc(N(CC2CC2)[C@H]2CC[C@@H](N(C)c3c(C#N)c(=O)n(C)c4ccc(C#N)nc34)CC2)cc(F)c1F
- pIC50 (DGKζ): 7.00 to 8.00
- pIC50 (DGKα): < 6.00

SMILES: Cn1c(=O)c(C#N)c(N(C)[C@H]2CC[C@@H](N(CC3CC3)c3ccc(F)c(F)c3)CC2)c2nc(Cl)ccc21
- pIC50 (DGKζ): 6.00 to 7.00
- pIC50 (DGKα): > 8.00

SMILES: COc1cc(OC)cc(N(CC2CC2)[C@H]2CC[C@H](N(C)c3c(C#N)c(=O)n(C)c4ccc(C#N)nc34)CC2)c1
- pIC50 (DGKζ): 6.00 to 7.00
- pIC50 (DGKα): < 6.00

pIC50: −log10 of the molar value.
